Sampled rows, rich in hits. Any-hit rate of the full collection: about 2.1%.
PTAP TSG101 blk: blocks PTAP/TSG101 interaction to inhibit HIV-1 budding. Q99816. Fluorescence polarization, FITC-PTAP peptide / Tsg101 binding. Potency, µM (top dose mostly 115 µM), inactives show at the top dose activity change, negative = inhibition, usual class: inhibitors. 340,000 tested, under 10 active. AID 493005; active = well fitted inhibition curve with a large enough effect in the main read-out, with a control signal flat, not every such curve was filed as active; inconclusive = small, poorly fitted or top-dose-only effect, or effect the other way, or a change in a side signal; inactive = no such curve, though single readings can be large or run the other way; note: potency is the fitted concentration of half-maximal effect; % of control where 0% means no effect
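FP read-out: FITC-PTAP peptide, 50 nM final, binding Tsg101 binding domain, 10 uM final; 20 min, r.t.; 10 mM HEPES pH 7.5, 0.15 M NaCl, 0.01% Tween 20, 3 mM EDTA, 0.1 mM TCEP.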
A549 tox: counter-screen for Nrf2 inhibitors: cytotoxicity in A549 cells; A549 ARE-Fluc cells, CellTiter-Fluor viability, 18-24 h; Potency, µM (doses to about 46 µM), for the others: at the top dose activity change, negative = cytotoxicity, hits mostly inhibitors; 0.16% of 390,000 active; AID 504648; note: potency is the fitted concentration of half-maximal effect; % is set by controls: 0 for no effect and ±100 for the full control effect
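A549 ARE-Fluc cells in 5% FBS OPTI-MEM, 5000 cells/well, rested 2 h then exposed to compounds in concentration-response for 18-24 h at 37 °C. Viability by CellTiter-Fluor fluorescence (Ex 405/Em 525) after 30 min; luciferase luminescence (BugLite, 15 min, RT) read afterwards.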
Nrf2 ARE act: Nrf2 pathway activation; Potency, µM (titrated, usually from 46.1 µM), for the others: at the highest dose activation, hits mostly activators; AREc32 ARE-luciferase reporter (MCF7-derived line), luminescence, 24 h; AID 624171; 0.31% of 410,000 active; note: potency is the fitted concentration of half-maximal effect; % of control where 0% means no effect; nearly all actives have a fitted effect of over 65% in size
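AREc32 cells carrying an ARE-driven firefly luciferase reporter were seeded at 1000 cells/well in OPTI-MEM with 5% FBS, then exposed to compound for 24 hr at 37 deg C. Luminescence was read with Steady-Glo after 30 min at RT.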
GRP78 ERSR act: inducers of ER stress response in human glioma cells; U87-MG GRP78 promoter luciferase reporter, 16 h; Potency, µM, for inactives: at the top dose activation, actives largely listed as activators; 0.02% of 420,000 active; AID 602332; note: potency is the fitted concentration of half-maximal effect; series mostly up to about 76 µM; % of control where 0% means no effect; nearly all actives have a fitted effect of over 35% in size
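ERSR induction read as luciferase luminescence (Bright-Glo, 10 min at room temperature) in stably transfected human U87-MG glioma cells exposed to compounds for 16 h, using GRP78 as sensor.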
Nrf2 block: Nrf2 pathway inhibition. 2.1% of 360,000 active. A549 ARE-Fluc reporter, luciferase luminescence, 18-24 h. AID 504444. Potency, µM (titrated, usually from 46 µM), for the others: at the highest dose activity change, negative = inhibition, most hits filed as inhibitors; note: potency is the fitted concentration of half-maximal effect; % is set by controls: 0 for no effect and ±100 for the full control effect; nearly all actives have a fitted effect of over 60% in size
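Cells were seeded and rested 2 h, then exposed to compounds for 18-24 h. CellTiter-Fluor was read first as a viability measure. BugLite was added 15 min before the final luminescent read of ARE-luciferase activity in A549 cells.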
miR-21 reporter: raises the signal of a miR-21 reporter | AID 2288 | 340,000 tested, under 10 active | Potency, µM (series often up to 38.3 µM), without a hit: at the highest dose reporter change, positive = more light | HeLa miR-21 FLuc reporter, luciferase, 48 h; active = well fitted rising curve with a large enough effect; inconclusive = small, poorly fitted or top-dose-only effect; inactive = no such curve, though single readings can be large or run the other way;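 further: % of control where 0% means no effect; miR-21 action dims this reporter so a rising signal means less miR-21 action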
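Using DMEM plus 10% FBS, HeLa miR-21-FLuc cells are incubated with test compounds (final up to about 40uM) for 48 hours; firefly luciferase signal is then imaged following reagent-mediated lysis.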
Starred values were filed as active, the others as inactive; ? = inconclusive; nt = no result; ! = not active in a repeat. Unless noted, calls come from the whole dose curve; as a rule, active = well fitted curve in the direction sought with a large enough effect; inconclusive = small, poorly fitted or top-dose-only effect, or another doubt; inactive = no such curve, though single readings can be large; an effect the other way counts as inactive or inconclusive.

SMILES	PTAP TSG101 blk	A549 tox	Nrf2 ARE act	GRP78 ERSR act	Nrf2 block	miR-21 reporter
O=C(Nc1cccc(C(=O)Nc2cc(C(=O)Nc3ccc([S+](=O)([O-])[O-])c4cc([S+](=O)([O-])[O-])cc(SOOO)c34)ccc2F)c1)Nc1cccc(C(=O)Nc2cc(C(=O)Nc3ccc([S+](=O)([O-])[O-])c4cc([S+](=O)([O-])[O-])cc([S+](=O)([O-])[O-])c34)ccc2F)c1	nt	nt	nt	-2.9%	nt	nt
CCCCCc1cc(O)c2c(c1)OC(C)(C)C1CC=C(C)CC21 (stereo not drawn)	nt	nt	nt	-5.7%	nt	nt
O=C1[O][Sb-]23[O]C(=O)C([O]2)C2[O][Sb-]4([O]C(=O)C([O]4)C1[O]3)[O]C2=O	nt	nt	nt	-11.2%	nt	nt
Cc1nn(Cc2ccccc2Cl)c(Cl)c1C(=O)O	-3.8%	8.0%	-0.2%	-4.4%	2.0%	-0.8%
CC(C)(C)c1nc(N2CCN(C(=O)c3ccco3)CC2)c2nnn(Cc3ccccc3Cl)c2n1	-2.4%	2.3%	0.7%	-4.8%	18.4µM*	0.1%
CC1=CC2/C=C(\C)CCC(O)C(O)/C=C/C(=O)C23C(=O)NC(CC(C)C)C3C1C (stereo not drawn)	-2.0%	16.4µM*	?	-11.5%	14.6µM*	?
O=C1NCc2c1c1c3ccccc3[nH]c1c1[nH]c3ccccc3c21	nt	-20.7%	nt	?	?	nt
CCCOP(=O)(OCCC)C(NC(=O)c1cc(OC)c(OC)c(OC)c1)c1ccccc1 (stereo not drawn)	0.6%	0.3%	-0.6%	-7.3%	-7.9%	13.7%
CCC(COC(=O)c1cc(OC)c(OC)c(OC)c1)(c1ccccc1)N(C)C (stereo not drawn)	1.1%	0.5%	7.7%	-1.7%	20.6µM*!	-8.9%
S=C(S)N1CCCC1	-5.6%	-6.6%	0.0%	-7.3%	5.8µM*	nt
CO/C=C(/C(=O)OC)c1ccccc1Oc1cc(Oc2ccccc2C#N)ncn1	nt	nt	nt	-3.3%	nt	nt
Cc1ccc(OCC(=O)N2CCN(Cc3ccc4c(c3)OCO4)CC2)cc1	1.2%	1.7%	2.0%	-2.0%	-12.4%	6.2%
CCCNS(=O)(=O)c1ccc(OCC(=O)N2CCN(Cc3ccc4c(c3)OCO4)CC2)c(C)c1	0.0%	4.1%	7.0%	-6.0%	11.6µM*	nt
CCCNS(=O)(=O)c1ccc(OCC(=O)N2CCN(Cc3ccc4c(c3)OCO4)CC2)cc1	-4.8%	-12.9%	-0.1%	-1.2%	8.2µM*	17.1%
Cc1ccc(-c2c(C)n3c4c(=O)n(C)c(=O)n(C)c4nc3n2CCO)cc1	nt	-20.3%	-0.4%	-2.6%	nt	?
COCCCn1c(N)c(C(=O)NCCC(C)C)c2nc3ccccc3nc21	-2.5%	?	0.1%	0.4%	16.4µM*	8.1%
CC1N(C)c2cc(NC(=O)c3ccco3)c(P(=O)(Nc3ccc([N+](=O)[O-])cc3)N3CCOCC3)cc2C1(C)C (stereo not drawn)	-1.0%	20.6µM*	3.8%	-1.8%	16.4µM*	21.3%
CCOC(=O)CC1c2ccccc2-n2nncc2CN1C (stereo not drawn)	-3.6%	6.6%	-0.4%	-1.9%	0.5%	nt
CCOC(=O)CC1c2ccccc2-n2nncc2CN1Cc1ccc(OC)cc1 (stereo not drawn)	1.5%	-10.9%	0.2%	-0.5%	23.1µM*	nt
c1ccc(C[n+]2ccccc2)cc1	-1.9%	1.0%	3.1%	-0.6%	?	nt
Cc1cc[n+](Cc2ccccc2)cc1	2.1%	-0.6%	-0.4%	-4.9%	18.4µM*	nt
CCN1/C(=C\C=C\C2=[N+](CC)c3ccccc3C2(C)C)C(C)(C)c2ccccc21	?	5.17µM*	-4.3%	-14.0%	0.651µM*	?
COc1ccc(C(=O)NCCn2cc(SC(C)c3ccccc3)c3ccccc32)cc1OC (stereo not drawn)	nt	-18.8%	0.7%	-2.9%	23.1µM*	?
CCCCCCC(=O)N/N=C/c1c(O)n(C(C)CC)c(=S)[nH]c1=O (stereo not drawn)	-4.0%	-5.6%	0.0%	-2.3%	14.6µM*	23.5%
C[C@H]1[C@@H]2Cc3ccc(O)cc3[C@]1(C)CCN2CCc1ccccc1	nt	nt	nt	-4.3%	nt	nt

Given with bars between the fields: 4 of the compounds above.
smiles | PTAP TSG101 blk | A549 tox | Nrf2 ARE act | GRP78 ERSR act | Nrf2 block | miR-21 reporter
O=C(Nc1cccc(C(=O)Nc2cc(C(=O)Nc3ccc([S+](=O)([O-])[O-])c4cc([S+](=O)([O-])[O-])cc(SOOO)c34)ccc2F)c1)Nc1cccc(C(=O)Nc2cc(C(=O)Nc3ccc([S+](=O)([O-])[O-])c4cc([S+](=O)([O-])[O-])cc([S+](=O)([O-])[O-])c34)ccc2F)c1 | nt | nt | nt | -2.9% | nt | nt
COCCCn1c(N)c(C(=O)NCCC(C)C)c2nc3ccccc3nc21 | -2.5% | ? | 0.1% | 0.4% | 16.4µM* | 8.1%
CCCCCc1cc(O)c2c(c1)OC(C)(C)C1CC=C(C)CC21 (stereo not drawn) | nt | nt | nt | -5.7% | nt | nt
CC1=CC2/C=C(\C)CCC(O)C(O)/C=C/C(=O)C23C(=O)NC(CC(C)C)C3C1C (stereo not drawn) | -2.0% | 16.4µM* | ? | -11.5% | 14.6µM* | ?

Next section.
SMILES	PTAP TSG101 blk	A549 tox	Nrf2 ARE act	GRP78 ERSR act	Nrf2 block	miR-21 reporter
CN(Cc1ccccc1)C(=O)Cn1c(=O)oc2cc(S(=O)(=O)NCc3ccccc3)ccc21	1.0%	-4.7%	0.3%	-3.6%	18.4µM*	27.9%
CC1CC(C)CN(S(=O)(=O)c2ccc3c(c2)oc(=O)n3CC(=O)NCc2cccnc2)C1 (stereo not drawn)	0.1%	-4.6%	-1.1%	-0.1%	?	15.7%
CCC(=O)OC1[C@@H](N2CCCCC2)C[C@H]2[C@@H]3CC[C@H]4C[C@H](OC(C)=O)[C@@H](N5CCCCC5)C[C@]4(C)[C@H]3CC[C@]12C (stereo partly drawn)	nt	nt	nt	14.4%	nt	nt
Cc1cccc(N2CCN(C(=O)CCS(=O)(=O)c3ccc4c(c3)oc(=O)n4C)CC2)c1C	-6.2%	3.9%	0.2%	-3.3%	?	9.4%
Cc1cccc(N2CCN(C(=O)CCNS(=O)(=O)c3ccc4c(c3)oc(=O)n4C)CC2)c1C	-8.9%	1.6%	2.5%	-0.8%	20.6µM*	9.8%
C=CC[C@H](CC(=O)N(CCO)Cc1ccccc1)C(=O)NC[C@H](OC(=O)[C@@H](CC=C)CC(=O)OC(C)(C)C)c1ccccc1	-5.4%	?	-3.7%	-2.2%	18.4µM*	nt
CC1(C)CC/C(=C\c2ccc(Cl)cc2)C1(O)Cn1cncn1 (stereo not drawn)	nt	nt	nt	-3.4%	nt	nt
Cc1c(Cl)cccc1NC(=O)c1oc2ccc(S(=O)(=O)N3CCC4(CC3)OCCO4)cc2c1C	nt	-10.2%	-0.2%	-3.3%	nt	?
C[C@]12CCC(=O)C=C1CC[C@@H]1[C@H]3CC[C@](C)(O)[C@@]3(C)CC[C@@H]12	nt	nt	nt	-3.7%	nt	nt
CCN(CC)c1ccc(/C=C2\C(=O)NC(=S)N(c3ccc(OC)cc3OC)C2=O)o1	?	13µM*	5.0%	-0.2%	-20.3%	nt
CC(C)[C@H]1C(=O)O[C@H](C(C)C)C(=O)N(C)[C@@H](C(C)C)C(=O)O[C@H](C(C)C)C(=O)N(C)[C@@H](C(C)C)C(=O)O[C@H](C(C)C)C(=O)N1C	-4.2%	?	4.3%	-1.4%	3.66µM*	?
CC1CCCN(c2ccc(C(=O)N3CCC4(CC3)OCCO4)cc2[N+](=O)[O-])C1 (stereo not drawn)	-2.4%	-7.0%	0.0%	-2.2%	3.3%	0.9%
CCOC(=O)C1CCCN(c2ccc([N+](=O)[O-])c3nonc23)C1 (stereo not drawn)	?	18.4µM*	5.3%	0.3%	-27.4%	2.7%

High-throughput results: PubChem, National Center for Advancing Translational Sciences (NCATS)
